Data taken from article PMC11685595 (Scientific Reports, 2024).

Target: Arabidopsis thaliana Plant Cysteine Oxidase 4, Ni(II)-substituted (AtPCO4.Ni(II)) (Arabidopsis thaliana, UniProt Q9SJI9 1-241)
Experiment: other fluorescence titration; intrinsic Trp fluorescence quenching of AtPCO4.Ni(II) with the shorter peptide (Supplementary Fig. S4); conditions not given
Conditions: both partners purified

binding result: binds
B1: RAP2_(2-7), a shorter peptidic form of the RAP peptide (peptide)
peptide: CGGAII
notes: RELATED TO AP-2.12 (RAP2.12), Arabidopsis thaliana, residues 2-7; also called RAP2-7
